Literature values in US11452728B2, “7-aminocephalosporanic acid derivative as inhibitor of IL15 and IL-2 activity” (Warszawski Uniwersytet Medyczny, priority 2013, dated 2022).

Settings: in vivo; cited from earlier work

Cc1nnc(SCC2=C(C(=O)O)N3C(=O)[C@@H](NC(=O)Cn4cnnn4)[C@H]3SC2)s1 [Cefazolin]
distribution into pleural cavity, peritoneal cavity, synovial fluid, bile, bones, urinary tract: good bioavailability | metabolism: not metabolized
